Molecular target: T1, CETP (Homo sapiens, UniProt P11597)
T1 sequence (P11597 18-493): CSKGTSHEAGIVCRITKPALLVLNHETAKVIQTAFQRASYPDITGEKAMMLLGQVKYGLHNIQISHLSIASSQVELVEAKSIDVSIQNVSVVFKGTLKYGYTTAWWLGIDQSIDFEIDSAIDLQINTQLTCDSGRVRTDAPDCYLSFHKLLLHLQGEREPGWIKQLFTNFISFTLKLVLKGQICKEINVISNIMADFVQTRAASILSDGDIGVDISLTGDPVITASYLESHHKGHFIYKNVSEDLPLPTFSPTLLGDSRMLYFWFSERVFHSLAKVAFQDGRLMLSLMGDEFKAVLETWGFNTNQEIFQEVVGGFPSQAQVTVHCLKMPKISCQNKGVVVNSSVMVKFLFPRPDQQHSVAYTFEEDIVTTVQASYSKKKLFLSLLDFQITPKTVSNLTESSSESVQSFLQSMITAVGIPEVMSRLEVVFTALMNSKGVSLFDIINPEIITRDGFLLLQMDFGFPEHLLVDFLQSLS
Experiment: Assay of CETP Inhibition using Purified Components (Reconstituted Buffer Assay)
Assay type: biochemical
Set-up: made in house; host or cells: CHO cells (serum-free conditioned medium)
Details: Inhibition of CETP activity in reconstituted buffer assay; transfer of [3H]CE from HDL to LDL
Protocol: Assay of CETP Inhibition using Purified Components (Reconstituted Buffer Assay)
The ability of compounds to inhibit CETP activity was assessed using an in vitro assay that measured the rate of transfer of radiolabeled cholesteryl ester ([^3H]CE) from HDL donor particles to LDL acceptor particles. Details of the assay are provided by Glenn, K. C. et al. (Glenn and Melton, “Quantification of Cholesteryl Ester Transfer Protein (CETP): A) CETP Activity and B) Immunochemical Assay of CETP Protein,” Meth. Enzymol., 263, 339-351 (1996)). Human recombinant CETP can be obtained from the serum-free conditioned medium of CHO cells transfected with a cDNA for CETP and purified as described by Wang, S. et al. (J. Biol. Chem. 267, 17487-17490 (1992)). To measure CETP activity, [^3H]CE-labeled-HDL, LDL, CETP and assay buffer (50 mM tris(hydroxymethyl)aminomethane, pH 7.4; 150 mM sodium chloride; 2 mM ethylenediamine-tetraacetic acid (EDTA); 1% bovine serum albumin) were incubated in a final volume of 200 μL, for 2 hours at 37° C. in 96 well plates. […] The inhibitors were then diluted 1:1 with CETP in assay buffer, and then 25 μL of that solution was mixed with 175 μL of lipoprotein pool for assay. […] After filtration, the radioactivity present in the precipitated LDL was measured by liquid scintillation counting. […]
Examples of IC50 values determined by these methods are specified in Table 9.

IC50: 9 µM
SMILES: OC(CN(Cc1cccc(OC(F)(F)F)c1)c1ccc(F)cc1)C(F)(F)F (stereo not shown) [Example 90]

From patent publication US6723753B2, “Substituted n-benzyl-n-phenyl aminoalcohol compounds useful for inhibiting cholesteryl ester transfer protein activity” (Pharmacia Corporation, priority 2002, dated 2004)
